System: Meth A ascites tumour-bearing mice
Assay: LPS lethality in Meth A ascites tumour-bearing mice
Format: in vivo
Details: 500 μg E.coli LPS, peptide s.c.; survival up to 64 hours; * heightened activity
Experimental: The number of surviving animals was then observed at 18 hours and 24 hours post TN? treatment. In experiments which assessed the effects of 1-related peptides on LPS lethality the mice were administered 500 μg E.coli LPS and peptide or other treatment in a similar manner. In LPS experiments polymyxin B, an LPS inhibitor, replaced MAb 47 as a positive control. The number of animals surviving was assessed at intervals up to 64 hours after LPS challenge.

ARG THR PRO SER ASP LYS VAL PRO ALA HIS VAL VAL ALA (RTPSDKVPAHVVA; printed: ARG THR PRO SER ASP LYS VAL PRO ALA HIS VAL VAL ALA) [Peptide 2]
IN VIVO LPS TOXICITY METH A: + (10 animals per group scored positive if 7 or more survive)

Reference: patent US5795859A (priority 1991, dated 1998)
